Literature values in PMC6255974 (Frontiers in Pharmacology, 2018).
Counter-ions that a name gives are not always drawn.

Set-up: method as in Dieterich et al., 1984
Details: humans, oral 2 × 260 mg quinine sulfate, ref Dieterich et al., 1984, cited from earlier work

Question: What does the source list for `C=C[C@H]1C[N@@]2CC[C@H]1C[C@H]2[C@H](O)c1ccnc2ccc(OC)cc12` [quinine sulfate]?
Answer: Plasma concentration after 12 h (12 h): 1600 ng/mL; Peak plasma concentration: 2.5 µg/mL
